Laboratory results reported in patent publication US12576060B2, “Water soluble 3-O-acetyl-11-keto-β-boswellic acid and metal ion compositions, process for their preparation and uses thereof” (LAILA NUTRA PRIVATE LIMITED, priority 2020, dated 2026).

Assay: Solubility in water of potassium or sodium salts of AKBA
Type: physicochemical
Conditions: volume of water needed to completely dissolve 1.0 g; room temperature (RT)
Experimental: These potassium or sodium salts of AKBA were evaluated for their solubility in water and determined their pH.

Substance | Solubility of 1.0 g of product in water
potassium salt or complex or chelate of 3-O-acetyl-11-keto-β-boswellic acid [LN05] | 140 mL
sodium salt of 3-O-acetyl-11-keto-β-boswellic acid [LN08] | 50 mL
